{
  "sequences": {"note": "Sequences of proteins named here, by UniProt entry; tags and fusion partners are left off.", "UniProt P20272, whole entry": "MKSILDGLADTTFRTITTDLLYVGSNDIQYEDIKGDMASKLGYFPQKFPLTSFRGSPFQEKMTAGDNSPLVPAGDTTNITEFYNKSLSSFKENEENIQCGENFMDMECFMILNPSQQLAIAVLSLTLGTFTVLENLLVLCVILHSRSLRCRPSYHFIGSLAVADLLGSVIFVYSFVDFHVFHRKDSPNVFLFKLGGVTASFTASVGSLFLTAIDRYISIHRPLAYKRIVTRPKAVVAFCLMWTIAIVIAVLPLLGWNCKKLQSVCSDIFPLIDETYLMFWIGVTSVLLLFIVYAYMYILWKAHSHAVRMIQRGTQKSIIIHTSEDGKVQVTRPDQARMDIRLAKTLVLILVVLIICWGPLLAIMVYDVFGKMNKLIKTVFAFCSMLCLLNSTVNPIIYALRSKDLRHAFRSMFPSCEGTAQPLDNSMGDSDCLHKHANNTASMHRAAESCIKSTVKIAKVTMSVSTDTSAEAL"},
  "source": "ChEMBL document CHEMBL3120110",
  "about": "“Design, synthesis, biological evaluation, and comparative docking study of 1,2,4-triazolones as CB1 receptor selective antagonists” (Eur J Med Chem, 2014)",
  "key": {"Cannabinoid receptor 1": {"target": "Cannabinoid receptor 1 (Rattus norvegicus, UniProt P20272)", "experiment": "Antagonist activity at rat brain CB1 receptor"}, "Cannabinoid receptor 2": {"target": "T1, Cannabinoid receptor 2 (Rattus norvegicus, UniProt Q9QZN9)", "T1 sequence (Q9QZN9 whole entry)": "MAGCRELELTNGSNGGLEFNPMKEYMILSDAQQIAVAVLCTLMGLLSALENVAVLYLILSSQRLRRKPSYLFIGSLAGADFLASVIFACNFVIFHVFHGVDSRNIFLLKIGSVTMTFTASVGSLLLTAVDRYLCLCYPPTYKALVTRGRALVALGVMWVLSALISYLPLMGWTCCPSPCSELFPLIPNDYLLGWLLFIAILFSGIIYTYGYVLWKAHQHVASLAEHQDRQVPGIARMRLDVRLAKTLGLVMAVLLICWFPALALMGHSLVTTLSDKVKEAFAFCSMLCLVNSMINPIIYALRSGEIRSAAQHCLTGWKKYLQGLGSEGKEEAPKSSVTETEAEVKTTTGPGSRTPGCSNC", "experiment": "Antagonist activity at rat spleen CB2 receptor"}},
  "data": [
    {"smiles": "Cc1ccc(Cn2nc(C(=O)N[C@@H]3C(C)(C)[C@@H]4CC[C@@]3(C)C4)cc2-c2ccc(Cl)c(C)c2)cc1", "note": "[SR-144528]", "values": [
      {"measurement": "Ki", "setting": "Cannabinoid receptor 1", "value": 437, "unit": "nM"},
      {"measurement": "Ki", "setting": "Cannabinoid receptor 2", "value": 0.6, "unit": "nM"}
    ]}
  ]
}
